Earlier results, collected in patent US4563479A, “Synergistic radiation protective pharmaceutical compositions” (Chinoin Gyogyszer es Vegyeszeti Termekek Gyar RT, priority 1979, dated 1986).

Conditions: LD50 p.o. / radiation protective dose, cited from earlier work

N=C(N)SCCN [aminoethyl-isothiuronium-bromide-hydrobromide]
Therapeutic index: 1.20

N=C(N)SCCN [AET, aminoethyl-isothiuronium-chloride-hydrochloride]
Therapeutic index (listed as aminoethyl-isothiuronium-chloride-hydrochloride): 1.78

Where a name gives a salt, the structure may show the parent alone. Read-outs that look alike come from different tables or passages of the source.
